In patent publication US7307083B2, “Tetrahydro-acridine and dithiolane derivatives” (priority 2005, dated 2007):

Tested on: anti-NGF mice (AD11)
Test: Cholinergic deficit of anti-NGF mice: ChAT immunohistochemistry, cholinergic neurones in the basal forebrain
Details: i.p., 15 days, doses of Table 6

Question: How did the “recovery of the cholinergic deficit (number of cholinergic neurones in the basal forebrain)” value turn out when CCN(C)C(=O)Oc1cccc([C@H](C)N(C)C)c1 [Rivastigmine, reference compound] was run?
Answer: did not allow the complete recovery of the cholinergic deficit
